# Test: Cyclic voltammetry, direct electro-oxidation on screen-printed carbon electrodes
# Type: physicochemical
# Description: All electrochemical experiments were performed on screen-printed carbon electrodes with an Ag/AgCl reference electrode in a 3-electrode mode of operation. Cyclic Voltammetry parameters were controlled via a computational program; scan rate: 0.1 V/s, start potential: −0.5V, switch potential: 0.9V, end potential: −0.5V.
# Bilirubin (mixed isomers), Fatty-acid free Human serum albumin, Bilirubin conjugated ditaurate disodium salt, Sodium hydroxide, Tris(hydroxymethyl)aminomethane, Hydrochloric acid, Tetrabromophenol Blue were purchased from Sigma Aldrich, UK. Deionized water (resistivity 18.2MΩ cm) was used in the preparation of solutions. Bilirubin was dissolved in 0.05M sodium hydroxide to prepare 1 mM stock and gently vortexed till homogenously mixed. This stock solution was then diluted using 0.05 M Tris-HCl (pH 8.5) to the desired working concentration. Human serum albumin was prepared in 0.05M Tris-HCl (pH 8.5) and vortexed till homogenously mixed. Bromophenol blue was prepared in 0.05M Tris-HCl (pH 8.5). Conjugated bilirubin was dissolved in 0.05M Tris-HCl (pH 8.5) and mixed till homogenous. All tubes containing bilirubin were protected from light.
# Regarding the detection of unbound unconjugated bilirubin, it was diluted to a physiologically relevant concentration (100 μM) and analyzed by cyclic voltammetry. […] Also, the peak at 0.15V was noticeably absent in second and third scans. […]
substance,measurement,setting,value
"albumin: Fatty-acid free Human serum albumin, purchased from Sigma Aldrich",anodic peak Epa,"first/characteristic anodic peak, carbon electrodes, Ag/AgCl reference, scan rate 0.1 V/s, 0.05M Tris-HCl pH 8.5",0.55 V
same,broad peak Epa across all concentrations,wider range 0.175 g/dL to 30 g/dL,0.6 V

# From patent publication US10371707B1, “System and methods for bilirubin analysis” (Neolight LLC, priority 2017, dated 2019)
